The chains behind the UniProt entries cited, without tags or fusion partners. A line that says so, or that is headed by a name, gives the form on record, which may keep a tag or linker.
UniProt Q15858, other isoform, or with tags, fused parts or gaps: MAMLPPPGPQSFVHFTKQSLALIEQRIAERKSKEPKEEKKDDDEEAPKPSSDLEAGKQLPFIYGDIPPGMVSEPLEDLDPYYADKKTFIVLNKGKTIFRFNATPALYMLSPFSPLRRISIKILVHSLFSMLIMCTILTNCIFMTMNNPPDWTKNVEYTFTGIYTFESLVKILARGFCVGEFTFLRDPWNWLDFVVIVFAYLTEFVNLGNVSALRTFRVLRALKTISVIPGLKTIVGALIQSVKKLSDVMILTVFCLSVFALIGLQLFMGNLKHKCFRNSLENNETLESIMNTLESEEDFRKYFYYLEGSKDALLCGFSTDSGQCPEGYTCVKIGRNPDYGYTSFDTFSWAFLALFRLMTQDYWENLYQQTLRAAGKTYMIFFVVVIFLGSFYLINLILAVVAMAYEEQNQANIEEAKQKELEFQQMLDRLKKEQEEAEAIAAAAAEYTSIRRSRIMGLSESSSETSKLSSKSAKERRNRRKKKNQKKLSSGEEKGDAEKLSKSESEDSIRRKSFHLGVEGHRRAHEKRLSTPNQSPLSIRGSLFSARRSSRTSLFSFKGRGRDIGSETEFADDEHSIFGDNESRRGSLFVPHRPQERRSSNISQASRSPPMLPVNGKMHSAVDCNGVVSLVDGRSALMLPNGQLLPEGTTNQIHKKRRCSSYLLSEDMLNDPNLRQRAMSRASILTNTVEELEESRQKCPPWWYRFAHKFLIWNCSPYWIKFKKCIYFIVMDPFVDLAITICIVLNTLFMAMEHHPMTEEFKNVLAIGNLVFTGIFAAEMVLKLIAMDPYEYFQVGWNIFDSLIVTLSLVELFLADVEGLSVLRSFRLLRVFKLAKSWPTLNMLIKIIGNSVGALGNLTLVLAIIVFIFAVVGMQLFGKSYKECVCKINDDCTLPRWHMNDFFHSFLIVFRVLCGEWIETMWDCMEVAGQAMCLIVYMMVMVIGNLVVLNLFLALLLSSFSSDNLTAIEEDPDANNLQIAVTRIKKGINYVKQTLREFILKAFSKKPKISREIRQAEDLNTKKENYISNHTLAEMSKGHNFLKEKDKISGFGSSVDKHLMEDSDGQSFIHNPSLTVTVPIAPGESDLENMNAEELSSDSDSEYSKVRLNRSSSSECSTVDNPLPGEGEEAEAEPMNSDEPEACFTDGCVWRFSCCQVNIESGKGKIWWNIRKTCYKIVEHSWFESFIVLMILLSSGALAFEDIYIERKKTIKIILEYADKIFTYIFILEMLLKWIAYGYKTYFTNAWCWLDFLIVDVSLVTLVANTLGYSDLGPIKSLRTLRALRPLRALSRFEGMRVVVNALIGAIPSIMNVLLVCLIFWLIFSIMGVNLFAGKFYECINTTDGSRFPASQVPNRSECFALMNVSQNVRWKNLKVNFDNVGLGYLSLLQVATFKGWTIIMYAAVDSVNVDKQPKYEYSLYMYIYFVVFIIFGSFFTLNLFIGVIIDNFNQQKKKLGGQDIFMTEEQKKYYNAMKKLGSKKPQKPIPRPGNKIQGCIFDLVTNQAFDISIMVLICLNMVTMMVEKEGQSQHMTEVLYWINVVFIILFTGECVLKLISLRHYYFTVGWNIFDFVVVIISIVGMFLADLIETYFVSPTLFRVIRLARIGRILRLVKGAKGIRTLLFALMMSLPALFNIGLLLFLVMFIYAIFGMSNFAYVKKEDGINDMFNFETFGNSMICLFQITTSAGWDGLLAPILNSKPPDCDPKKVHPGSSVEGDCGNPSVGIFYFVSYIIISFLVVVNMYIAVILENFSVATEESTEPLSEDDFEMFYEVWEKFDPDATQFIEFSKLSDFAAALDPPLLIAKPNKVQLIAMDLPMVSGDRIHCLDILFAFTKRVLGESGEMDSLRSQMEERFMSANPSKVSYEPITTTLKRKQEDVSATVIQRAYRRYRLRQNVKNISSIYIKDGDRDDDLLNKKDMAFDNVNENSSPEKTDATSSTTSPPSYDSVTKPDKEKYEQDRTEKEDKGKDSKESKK

In patent publication US9212139B2, “Aryl substituted indoles and their use as blockers of sodium channels” (Purdue Pharma, L.P., priority 2010, dated 2015):

Legend:
hNav1.7 = hNav1.7 (Homo sapiens (Human), UniProt Q15858); assay: Electrophysiology (EP) assay, whole-cell patch clamp; type: cell-based; conditions: read-out: EP Nav1.7 Ki
human Nav1.7 = human Nav1.7 (Homo sapiens (Human), UniProt Q15858); assay: FLIPR or FLIPR TETRA sodium dye assay with KCl and test article pre-incubation; type: cell-based; conditions: read-out: FLIPR Nav1.7 IC50 (μM) ± SEM
Experimental: Recombinant Nav1.7 Cell Line: In vitro assays were performed in a recombinant cell line expressing cDNA encoding the alpha subunit (Nav1.7, SCN9a, PN1, NE) of human Nav1.7 (Accession No. NM_002977). The cell line was provided by investigators at Yale University (Cummins et al, J. Neurosci. 18(23): 9607-9619 (1998)). For dominant selection of the Nav1.7-expressing clones, the expression plasmid co-expressed the neomycin resistance gene. The cell line was constructed in the human embryonic kidney cell line, HEK293, under the influence of the CMV major late promoter, and stable clones were selected using limiting dilution cloning and antibiotic selection using the neomycin analogue, G418. […]
CoroNa™ Green AM Na^+ Dye for Primary Fluorescence Assay: The fluorescence indicator used in the primary fluorescence assay was the cell permeant version of CoroNa™ Green (Invitrogen, Molecular Probes, Eugene, Oreg.), a dye that emits light in the fluorescence range (Harootunian et al., J. Biol. Chem. 264(32):19458-19467 (1989)). […] Cells expressing Nav1.7 or other sodium channels were loaded with the CoroNa™ Green dye immediately in advance of the fluorescence assay, and then, after agonist stimulation, the mobilization of Na^+ ions was detected as the Na^+ ions flowed from the extracellular fluid into the cytoplasm through the activated sodium channel pores. […]

Q: For `N#Cc1ccc(Oc2ccc(-n3nc(C(=O)NCC(O)CO)c4ccccc43)cc2)cc1` (centres unmarked) [Compound 159, 1-(4-(4-Cyanophenoxy)phenyl)-N-(2,3-dihydroxypropyl)-1H-indazole-3-carboxamide], which Ki (hNav1.7) is on record?
A: 930 nM

Q: What about the IC50 (human Nav1.7) of the same molecule?
A: 0.431 ± 0.059 µM
